Data published in PMC11410929, “Biochemical and crystallographic studies of L,D-transpeptidase 2 from Mycobacterium tuberculosis with its natural monomer substrate” (Communications Biology, 2024).

Molecular target: DAAO and HRP
Assay: Transpeptidase interference assay (no LdtMt2, D-Ala as substrate)
Assay type: biochemical
Details: for Transpeptidase interference assay pIC50 (mean ± SD): DAAO 2 U/mL, HRP 2 U/mL, FAD 40 µM, Amplex red 10 µM, 30 min rt, then D-alanine 500 nM, pH 8.0, quadruplicate
Procedure: The transpeptidase interference assay was performed as described above, with the modification that the LdtMt2 mixture was replaced by 5 µL assay buffer, and the substrate was replaced by D-Ala (500 nM final concentration). Data were analysed using Prism 10 (GraphPad).
Figure S14. Dose-response curves of the transpeptidase interference assay with compounds
14-24. The specified inhibitors were incubated with DAAO (2 U/mL), HRP (2 U/mL), FAD (40 μM) and
Amplex red (10 μM) in 50 mM sodium phosphate pH 8.0 with 100 mM NaCl at room temperature for 30
minutes, after which time D-alanine (500 nM) was added. The pIC50 values and compound structures
See Methods for experimental details. Individual data points are shown.

SMILES | Transpeptidase interference assay pIC50 (mean ± SD) | Interference with the DAAO/HRP assay (inhibition of DAAO and HRP, in words)
O=C1C=CC(=O)N1c1ccccc1 | < 4.0 | 
N#Cn1c(-c2cnc(-c3cccs3)nc2)nc2ccccc21 | < 4.0 | 
O=c1c2cc(Cl)c(Cl)cc2sn1CCO | 5.0 ± 0.2 | cause interference
NC(=O)C=CC(=O)Nc1ccc(Cl)cc1 | < 4.0 | 
